The labels stand for the following.
B1: Flag-PDK1 (3-phosphoinositide-dependent protein kinase 1, wild type) [not stated] / HA-AKT1 [not stated] (parent)
chain 1: MARTTSQLYDAVPIQSSVVLCSCPSPSMVRTQTESSTPPGIPGGSRQGPAMDGTAAEPRPGAGSLQHAQPPPQPRKKRPEDFKFGKILGEGSFSTVVLARELATSREYAIKILEKRHIIKENKVPYVTRERDVMSRLDHPFFVKLYFTFQDDEKLYFGLSYAKNGELLKYIRKIGSFDETCTRFYTAEIVSALEYLHGKGIIHRDLKPENILLNEDMHIQITDFGTAKVLSPESKQARANSFVGTAQYVSPELLTEKSACKSSDLWALGCIIYQLVAGLPPFRAGNEYLIFQKIIKLEYDFPEKFFPKARDLVEKLLVLDATKRLGCEEMEGYGPLKAHPFFESVTWENLHQQTPPKLTAYLPAMSEDDEDCYGNYDNLLSQFGCMQVSSSSSSHSLSASDTGLPQRSGSNIEQYIHDLDSNSFELDLQFSEDEKRLLLEKQAGGNPWHQFVENNLILKMGPVDKRKGLFARRRQLLLTEGPHLYYVDPVNKVLKGEIPWSQELRPEAKNFKTFFVHTPNRTYYLMDPSGNAHKWCRKIQEVWRQRYQSHPDAAVQ
chain 2: MSDVAIVKEGWLHKRGEYIKTWRPRYFLLKNDGTFIGYKERPQDVDQREAPLNNFSVAQCQLMKTERPRPNTFIIRCLQWTTVIERTFHVETPEEREEWTTAIQTVADGLKKQEEEEMDFRSGSPSDNSGAEEMEVSLAKPKHRVTMNEFEYLKLLGKGTFGKVILVKEKATGRYYAMKILKKEVIVAKDEVAHTLTENRVLQNSRHPFLTALKYSFQTHDRLCFVMEYANGGELFFHLSRERVFSEDRARFYGAEIVSALDYLHSEKNVVYRDLKLENLMLDKDGHIKITDFGLCKEGIKDGATMKTFCGTPEYLAPEVLEDNDYGRAVDWWGLGVVMYEMMCGRLPFYNQDHEKLFELILMEEIRFPRTLGPEAKSLLSGLLKKDPKQRLGGGSEDAKEIMQHRFFAGIVWQHVYEKKLSPPFKPQVTSETDTRYFDEEFTAQMITITPPDQDDSMECVDSERRPHFPQFSYSASGTA

The variants in the experiment derive from B1. The experiment can be described thus: co-immunoprecipitation (IP: Flag), immunoblot band quantification. The conditions noted are these: with HA-AKT1; 293T cells transfected with HA-AKT1 and Flag-PDK1; n = 3; parent: 1; read off a plot.
For chain 1 MARTTSQLYDAVPIQSSVVLCSCPSPSMVRTQTESSTPPGIPGGSRQGPAMDGTAAEPRPGAGSLQHAQPPPQPRKKRPEDFKFGKILGEGSFSTVVLARELATSREYAIKILEKRHIIKENKVPYVTRERDVMSRLDHPFFVKLYFTFQDDEKLYFGLSYAKNGELLKYIRKIGSFDETCTRFYTAEIVSALEYLHGKGIIHRDLKPENILLNEDMHIQITDFGTAKVLSPESKQARANSFVGTAQYVSPELLTEKSACKSSDLWALGCIIYQLVAGLPPFRAGNEYLIFQKIIKLEYDFPEKFFPKARDLVEKLLVLDATKRLGCEEMEGYGPLKAHPFFESVTWENLHQQTPPKLTAYLPAMSEDDEDCYGNYDNLLSQFGCMQVSSSSSSHSLSASDTGLPQRSGSNIEQYIHDLDSNSFELDLQFSEDEKRLLLEKQAGGNPWHQFVENNLILKMGPVDKRKGLFARRRQLLLTEGPHLYYVDPVNKVLKGEIPWSQELRPEAKNFKTFFVHTPNRTYYLMDPSGNAHKWCRKIQEVWKQRYQSHPDAAVQ [chain 1 R544K], the response was found to be 1.8.
In the case of chain 1 MARTTSQLYDAVPIQSSVVLCSCPSPSMVRTQTESSTPPGIPGGSRQGPAMDGTAAEPRPGAGSLQHAQPPPQPRKKRPEDFKFGKILGEGSFSTVVLARELATSREYAIKILEKRHIIKENKVPYVTRERDVMSRLDHPFFVKLYFTFQDDEKLYFGLSYAKNGELLKYIRKIGSFDETCTRFYTAEIVSALEYLHGKGIIHRDLKPENILLNEDMHIQITDFGTAKVLSPESKQARANSFVGTAQYVSPELLTEKSACKSSDLWALGCIIYQLVAGLPPFRAGNEYLIFQKIIKLEYDFPEKFFPKARDLVEKLLVLDATKRLGCEEMEGYGPLKAHPFFESVTWENLHQQTPPKLTAYLPAMSEDDEDCYGNYDNLLSQFGCMQVSSSSSSHSLSASDTGLPQRSGSNIEQYIHDLDSNSFELDLQFSEDEKRLLLEKQAGGNPWHQFVENNLILKMGPVDKRKGLFARRRQLLLTEGPHLYYVDPVNKVLKGEIPWSQELRPEAKNFKTFFVHTPNRTYYLMDPSGNAHKWCRKIQEVWRQRYQNHPDAAVQ [chain 1 S549N] it was 3.3.
For the variant chain 1 MARTTSQLYDAVPIQSSVVLCSCPSPSMVRTQTESSTPPGIPGGSRQGPAMDGTAAEPRPGAGSLQHAQPPPQPRKKRPEDFKFGKILGEGSFSTVVLARELATSREYAIKILEKRHIIKENKVPYVTRERDVMSRLDHPFFVKLYFTFQDDEKLYFGLSYAKNGELLKYIRKIGSFDETCTRFYTAEIVSALEYLHGKGIIHRDLKPENILLNEDMHIQITDFGTAKVLSPESKQARANSFVGTAQYVSPELLTEKSACKSSDLWALGCIIYQLVAGLPPFRAGNEYLIFQKIIKLEYDFPEKFFPKARDLVEKLLVLDATKRLGCEEMEGYGPLKAHPFFESVTWENLHQQTPPKLTAYLPAMSEDDEDCYGNYDNLLSQFGCMQVSSSSSSHSLSASDTGLPQRSGSNIEQYIHDLDSNSFELDLQFSEDEKRLLLEKQAGGNPWHQFVENNLILKMGPVDKRKGLFARRRQLLLTEGPHLYYVDPVNKVLKGEIPWSQELRPEAKNFKTFFVHTPNRTYYLMDPSGNAHKWCRKIQEVWRQRYQSHLDAAVQ [chain 1 P551L], the response worked out at 3.2.
Then chain 1 MARTTSQLYDAVPIQSSVVLCSCPSPSMVRTQTESSTPPGIPGGSRQGPAMDGTAAEPRPGAGSLQHAQPPPQPRKKRPEDFKFGKILGEGSFSTVVLARELATSREYAIKILEKRHIIKENKVPYVTRERDVMSRLDHPFFVKLYFTFQDDEKLYFGLSYAKNGELLKYIRKIGSFDETCTRFYTAEIVSALEYLHGKGIIHRDLKPENILLNEDMHIQITDFGTAKVLSPESKQARANSFVGTAQYVSPELLTEKSACKSSDLWALGCIIYQLVAGLPPFRAGNEYLIFQKIIKLEYDFPEKFFPKARDLVEKLLVLDATKRLGCEEMEGYGPLKAHPFFESVTWENLHQQTPPKLTAYLPAMSEDDEDCYGNYDNLLSQFGCMQVSSSSSSHSLSASDTGLPQRSGSNIEQYIHDLDSNSFELDLQFSEDEKRLLLEKQAGGNPWHQFVENNLILKMGPVDKRKGLFARRRQLLLTEGPHLYYVDPVNKVLKGEIPWSQELRPEAKNFKTFFVHTPNRTYYLMDPSGNAHKWCRKIQEVWRQRYQSHADAAVQ [chain 1 P551A], with 1.6.
In the case of chain 1 MARTTSQLYDAVPIQSSVVLCSCPSPSMVRTQTESSTPPGIPGGSRQGPAMDGTAAEPRPGAGSLQHAQPPPQPRKKRPEDFKFGKILGEGSFSTVVLARELATSREYAIKILEKRHIIKENKVPYVTRERDVMSRLDHPFFVKLYFTFQDDEKLYFGLSYAKNGELLKYIRKIGSFDETCTRFYTAEIVSALEYLHGKGIIHRDLKPENILLNEDMHIQITDFGTAKVLSPESKQARANSFVGTAQYVSPELLTEKSACKSSDLWALGCIIYQLVAGLPPFRAGNEYLIFQKIIKLEYDFPEKFFPKARDLVEKLLVLDATKRLGCEEMEGYGPLKAHPFFESVTWENLHQQTPPKLTAYLPAMSEDDEDCYGNYDNLLSQFGCMQVSSSSSSHSLSASDTGLPQRSGSNIEQYIHDLDSNSFELDLQFSEDEKRLLLEKQAGGNPWHQFVENNLILKMGPVDKRKGLFARRRQLLLTEGPHLYYVDPVNKVLKGEIPWSQELRPEAKNFKTFFVHTPNRTYYLMDPSGNAHKWCRKIQEVWRQPYQSHPDAAVQ [chain 1 R546P] it was 2.2.
